The entries are a selection whose mix differs from that of the whole data set. The source made the active and inactive calls. Rule as the data show it: active = inhibition above about 80%; inactive = the rest.
target: Bifunctional epoxide hydrolase 2 (Homo sapiens) (UniProt P34913); assay: sEH enzyme activity blockers – biochemical, human sEH, primary screen (AID 707); details: recombinant human sEH enzymatic activity assay; at 2 µM; active compounds read high

The chains behind the UniProt entries cited, without tags or fusion partners.
UniProt P34913, whole entry: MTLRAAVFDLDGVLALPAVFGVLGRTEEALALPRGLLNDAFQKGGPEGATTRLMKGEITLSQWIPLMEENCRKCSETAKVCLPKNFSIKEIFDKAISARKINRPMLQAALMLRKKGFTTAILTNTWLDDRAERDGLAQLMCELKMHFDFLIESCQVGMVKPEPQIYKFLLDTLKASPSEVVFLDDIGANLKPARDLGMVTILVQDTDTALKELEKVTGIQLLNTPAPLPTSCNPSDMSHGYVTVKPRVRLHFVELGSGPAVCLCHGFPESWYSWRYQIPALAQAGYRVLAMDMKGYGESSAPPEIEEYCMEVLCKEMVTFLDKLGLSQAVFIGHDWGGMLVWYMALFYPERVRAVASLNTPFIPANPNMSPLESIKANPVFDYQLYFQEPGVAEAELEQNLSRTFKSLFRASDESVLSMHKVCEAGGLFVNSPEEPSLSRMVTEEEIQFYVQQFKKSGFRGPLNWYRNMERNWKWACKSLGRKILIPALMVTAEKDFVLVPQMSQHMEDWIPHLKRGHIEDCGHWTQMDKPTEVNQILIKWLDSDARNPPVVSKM

| SMILES | inhibition |
| --- | --- |
| Cc1cc(C)cc(OP(C)(=O)Nc2ccc(C)cc2C)c1 (centres undefined) | inactive: 35.6% |
| Cc1cc(C)cc(OP(C)(=O)Nc2ccccn2)c1 (centres undefined) | inactive: 10.5% |
| Cc1ccc(C)c(NP(C)(=O)Oc2ccccc2)c1 (centres undefined) | inactive: -27.8% |
| Cc1nc2ccc3ccccc3c2s1.O=[N+]([O-])c1cc([N+](=O)[O-])c(O)c([N+](=O)[O-])c1 | inactive: 9.5% |
| COc1ccccc1OP(C)(=O)Nc1c(C)cccc1C (centres undefined) | inactive: 8.6% |
| CP(=S)(Nn1cnnc1)Oc1ccccc1 (centres undefined) | inactive: -1% |
| CP(=O)(NC(=O)Nc1ccccc1)Oc1ccccc1 (centres undefined) | inactive: -5.4% |
| CP(=O)(Nc1ccccn1)Oc1ccc(Cl)cc1 (centres undefined) | inactive: 0.9% |
| COc1ccc(OP(C)(=O)Nc2cccc(F)c2)cc1 (centres undefined) | inactive: -0.3% |
| COc1ccccc1OP(C)(=O)Nc1ccc(C)c(C)c1 (centres undefined) | inactive: -5.4% |
| Cc1nc2ccc3ccccc3c2o1.O=[N+]([O-])c1cc([N+](=O)[O-])c(O)c([N+](=O)[O-])c1 | inactive: -6.6% |
| CN(C)CCOC(=O)C(O)(c1ccccc1)C1CCCC1 (centres undefined) | inactive: -20.4% |
| COc1ccc(OP(C)(=O)Nc2ccccn2)cc1 (centres undefined) | inactive: -5.2% |
| Cc1c(NP(C)(=O)Oc2ccc(C(C)C)cc2)c(=O)n(-c2ccccc2)n1C (centres undefined) | inactive: 10% |
| CCc1ccc(OP(C)(=O)O)cc1 | inactive: 5.3% |
| CP(=O)(Nc1ccccn1)Oc1ccccc1 (centres undefined) | inactive: 5.5% |
| CCN(CC)CC(O)COC(=O)C(O)(c1ccccc1)C1CCCCC1 (centres undefined) | inactive: -14.2% |
| CP(=O)(Oc1ccccc1)N1CCOC1=O (centres undefined) | inactive: -5.5% |
| COc1ccccc1OP(C)(=O)Nc1c(C)n(C)n(-c2ccccc2)c1=O (centres undefined) | inactive: 3.4% |
| CP(=O)(Nc1ccc(Cl)cc1)Oc1ccc(F)cc1 (centres undefined) | inactive: 7.3% |
| CC(C)(C)c1ccc(OP(C)(=O)O)cc1 | inactive: 5% |
| CP(=O)(OC12CC3CC(CC(C3)C1)C2)OC12CC3CC(CC(C3)C1)C2 | inactive: -14.1% |
| COc1ccc(OP(C)(=O)Nc2cccc(Br)c2)cc1 (centres undefined) | inactive: 4.9% |
| CN(C)CCOC(=O)C(O)(c1ccccc1)C1CCCCC1 (centres undefined) | inactive: 15.4% |
| CCOP(C)(=S)SCC(=O)NC(C)(CC)C(=O)O (centres undefined) | inactive: -1.4% |
| CP(=O)(Nc1ccc2c(c1)OCCO2)Oc1ccccc1 (centres undefined) | inactive: 1.1% |
| CP(=O)(Nc1ccccc1F)Oc1ccccc1 (centres undefined) | inactive: 0.2% |
| CCN(CC)CCCOC(=O)C(O)(c1ccccc1)C1CCCCC1 (centres undefined) | inactive: 4% |
| CP(=O)(Nc1ccccc1)Oc1ccc(F)cc1 (centres undefined) | inactive: -11.2% |

Reference: PubChem BioAssay AID707 (Columbia University Molecular Screening Center, 2007)
